Laboratory results as given in US20210024615A1 (LIVERPOOL SCHOOL OF TROPICAL MEDICINE, published 2021).

Target: T1, IgG1-Fc (human, UniProt P01857, in part = IgG part)
T1 construct: domain: Fc
Experiment: ELISA

B1: MBL (receptor, UniProt P11226 21-248, looked up)
chain: ETVTCEDAQKTCPAVIACSSPGINGFPGKDGRDGTKGEKGEPGQGLRGLQGPPGKLGPPGNPGPSGSPGPKGQKGDPGKSPDGDSSLAASERKALQTEMARIKKWLTFSLGKQVGNKFFLTNGEIMTFEKVKALCVKFQASVATPRNAAENGAIQNLIKEEAFLGITDEKTEGQFVDLTGNRLTYTNWNEGEPNNAGSDEDCVLLLKNGQWNDVPCSTSHLAVCEFPI
**Q.** Does B1 bind?
**A.** no binding
